Measured values from patent publication US11312722B2, “Hsp90 inhibitors and uses thereof” (TRUSTEES OF BOSTON UNIVERSITY, priority 2019, dated 2022).
Read-outs that look alike come from different tables or passages of the source.

Key:
[1] = biological target: Hsp90 (C. albicans whole cell lysate) (Candida albicans (strain SC5314 / ATCC MYA-2876) (Yeast), UniProt P46598); assay: biochemical; assay type: binding
in vitro = details: both, CD-1, mouse, microsomes
C. albicans Hsp90 NBD = C. albicans Hsp90 NBD (Candida albicans (strain SC5314 / ATCC MYA-2876) (Yeast), UniProt P46598); assay: FP assay with purified C. albicans Hsp90 NBD (Ki); assay type: binding
[2] = FP competition, whole cell lysate, duplicate, screening experiment, read-out: C. albicans EC50

Compound: COc1ccc(Cn2nccc2Nc2cc(O)cc(O)c2C(=O)N2Cc3ccccc3C2)cc1 [Compound 40, 4-(2,3-Dihydro-1H-isoindole-2-carbonyl)-5-((1-((4-methoxyphenyl)methyl)-1H-pyrazol-5-yl)amino)benzene-1,3-diol]
- EC50 [1]: 30 nM

Compound: Cc1ccc(Cn2nc(C)cc2Nc2cc(O)cc(O)c2C(=O)N2Cc3ccccc3C2)cc1 [Compound 88, 4-(2,3-Dihydro-1H-isoindole-2-carbonyl)-5-((3-methyl-1-((4-methylphenyl)methyl)-1H-pyrazol-5-yl)amino)benzene-1,3-diol]
- EC50 [1, 2]: 121 nM

Compound: CC(C)(C)n1nc(-c2ccccc2)cc1Nc1cc(O)cc(O)c1C(=O)N1Cc2cccnc2C1 [Compound 94, 5-((1-tert-Butyl-3-phenyl-1H-pyrazol-5-yl)amino)-4-(5H,6H,7H-pyrrolo[3,4-b]pyridine-6-carbonyl)benzene-1,3-diol]
- EC50 [1]: 1610 nM
- EC50 [1, 2]: 379 nM

Compound: O=C(c1c(O)cc(O)cc1Nc1cc(-c2ccccc2)nn1C1CCCCC1)N1Cc2cn[nH]c2C1 [Compound 97, 5-((1-Cyclohexyl-3-phenyl-1H-pyrazol-5-yl)amino)-4-(1H,4H,5H,6H-pyrrolo[3,4-c]pyrazole-5-carbonyl)benzene-1,3-diol]
- EC50 [1, 2]: 34 nM

Compound: COc1ccc(Cn2ncc(C(C)C)c2Nc2cc(O)cc(O)c2C(=O)N2Cc3ccccc3C2)cc1 [Compound 42, 4-(2,3-Dihydro-1H-isoindole-2-carbonyl)-5-((1-((4-methoxyphenyl)methyl)-4-(propan-2-yl)-1H-pyrazol-5-yl)amino)benzene-1,3-diol]
- EC50 [1, 2]: 147 nM

Compound: Cn1nc(-c2ccc(OC(F)(F)F)cc2)cc1Nc1cc(O)cc(O)c1C(=O)N1Cc2cn[nH]c2C1 [Compound 132, 5-((1-Methyl-3-(4-(trifluoromethoxy)phenyl)-1H-pyrazol-5-yl)amino)-4-(1H,4H,5H,6H-pyrrolo[3,4-c]pyrazole-5-carbonyl)benzene-1,3-diol]
- half-life at 1 μM (in vitro): 31 min

Compound: Cn1nc(-c2ccc(OC(F)(F)F)cc2)cc1Nc1cc(O)cc(O)c1C(=O)N1Cc2cccnc2C1 [Compound 131, 5-((1-Methyl-3-(4-(trifluoromethoxy)phenyl)-1H-pyrazol-5-yl)amino)-4-(5H,6H,7H-pyrrolo[3,4-b]pyridine-6-carbonyl)benzene-1,3-diol]
- half-life at 1 μM (in vitro): 14.1 min

Compound: COc1ccc(Cn2nc(C(C)(C)C)cc2Nc2cc(O)cc(O)c2C(=O)N2Cc3ccccc3C2)cc1 [Compound 49, (2-((3-(tert-Butyl)-1-(4-methoxybenzyl)-1H-pyrazol-5-yl)amino)-4,6-dihydroxyphenyl)(isoindolin-2-yl)methanone]
- EC50 [1, 2]: 816 nM

Compound: Cn1nc(-c2ccccc2)cc1Nc1cc(O)cc(O)c1C(=O)N1Cc2ccccc2C1 [Compound 91, 4-(2,3-Dihydro-1H-isoindole-2-carbonyl)-5-((1-methyl-3-phenyl-1H-pyrazol-5-yl)amino]benzene-1,3-diol]
- EC50 [1]: 630 nM
- Ki (C. albicans Hsp90 NBD): 13 nM

Compound: Cn1nccc1Nc1cc(O)cc(O)c1C(=O)N1Cc2cn[nH]c2C1 [Compound 58, 5-((1-Methyl-1H-pyrazol-5-yl)amino)-4-(1H,4H,5H,6H-pyrrolo[3,4-c]pyrazole-5-carbonyl)benzene-1,3-diol]
- EC50 ([1]; read-out: C. alb EC50): 377 nM

Compound: Cn1nc(-c2ccccc2)cc1Nc1cc(O)cc(O)c1C(=O)N1Cc2cccnc2C1 [Compound 92, 5-((1-Methyl-3-phenyl-1H-pyrazol-5-yl)amino)-4-(5H,6H,7H-pyrrolo[3,4-b]pyridine-6-carbonyl)benzene-1,3-diol]
- EC50 [1]: 1350 nM
- EC50 ([1]; read-out: C. alb EC50): 395 nM

Compound: COc1cccc(-c2cc(Nc3cc(O)cc(O)c3C(=O)N3Cc4cn[nH]c4C3)n(C)n2)c1 [Compound 114, 5-((3-(3-Methoxyphenyl)-1-methyl-1H-pyrazol-5-yl)amino)-4-(1H,4H,5H,6H-pyrrolo[3,4-c]pyrazole-5-carbonyl)benzene-1,3-diol]
- half-life at 1 μM (in vitro): 17.2 min

Compound: Cc1cc(Nc2cc(O)cc(O)c2C(=O)N2Cc3ccccc3C2)n(Cc2ccccc2Cl)n1 [Compound 89, 5-((1-((2-Chlorophenyl)methyl)-3-methyl-1H-pyrazol-5-yl)amino)-4-(2,3-dihydro-1H-isoindole-2-carbonyl)benzene-1,3-diol]
- EC50 [1]: 70 nM

Compound: O=C(c1c(O)cc(O)cc1Nc1cc(-c2ccccc2)nn1C1CCCCC1)N1Cc2cccnc2C1 [Compound 96, 5-((1-Cyclohexyl-3-phenyl-1H-pyrazol-5-yl)amino)-4-(5H,6H,7H-pyrrolo[3,4-b]pyridine-6-carbonyl)benzene-1,3-diol]
- EC50 [1, 2]: 59 nM

Compound: Cn1nccc1Nc1cc(O)cc(O)c1C(=O)N1Cc2cccnc2C1 [Compound 57, 5-((1-Methyl-1H-pyrazol-5-yl)amino)-4-(5H,6H,7H-pyrrolo[3,4-b]pyridine-6-carbonyl)benzene-1,3-diol]
- EC50 [1, 2]: 624 nM

Compound: COc1ccc(Cn2ncc(Cc3ccccc3)c2Nc2cc(O)cc(O)c2C(=O)N2Cc3ccccc3C2)cc1 [Compound 44, 5-((4-Benzyl-1-((4-methoxyphenyl)methyl)-1H-pyrazol-5-yl)amino)-4-(2,3-dihydro-1H-isoindole-2-carbonyl)benzene-1,3-diol]
- EC50 [1, 2]: 465 nM

Compound: O=C(c1c(O)cc(O)cc1Nc1ccnn1Cc1ccco1)N1Cc2cccnc2C1 [Compound 81, 5-((1-((Furan-2-yl)methyl)-1H-pyrazol-5-yl)amino)-4-(5H,6H,7H-pyrrolo[3,4-b]pyridine-6-carbonyl)benzene-1,3-diol]
- EC50 [1, 2]: 80 nM

Compound: CC(C)n1nccc1Nc1cc(O)cc(O)c1C(=O)N1Cc2ccccc2C1 [Compound 59, 4-(2,3-Dihydro-1H-isoindole-2-carbonyl)-5-((1-(propan-2-yl)-1H-pyrazol-5-yl)amino)benzene-1,3-diol]
- EC50 [1, 2]: 76 nM

Compound: COc1ccc(Cn2ncc(-c3ccccc3)c2Nc2cc(O)cc(O)c2C(=O)N2Cc3ccccc3C2)cc1 [Compound 43, 4-(2,3-Dihydro-1H-isoindole-2-carbonyl)-5-((1-((4-methoxyphenyl)methyl)-4-phenyl-1H-pyrazol-5-yl)amino)benzene-1,3-diol]
- EC50 [1, 2]: 615 nM

Compound: CC(C)Cn1nc(-c2ccccc2)cc1Nc1cc(O)cc(O)c1C(=O)N1Cc2cccnc2C1 [Compound 98, 5-((1-(2-Methylpropyl)-3-phenyl-1H-pyrazol-5-yl)amino)-4-(5H,6H,7H-pyrrolo[3,4-b]pyridine-6-carbonyl)benzene-1,3-diol]
- EC50 [1]: 370 nM
- EC50 [1, 2]: 100 nM

Compound: O=C(c1c(O)cc(O)cc1Nc1ccnn1Cc1cccnc1)N1Cc2cccnc2C1 [Compound 78, 5-((1-((Pyridin-3-yl)methyl)-1H-pyrazol-5-yl)amino)-4-(5H,6H,7H-pyrrolo[3,4-b]pyridine-6-carbonyl)benzene-1,3-diol]
- EC50 [1, 2]: 143 nM

Compound: CC(C)(C)n1nc(-c2ccccc2)cc1Nc1cc(O)cc(O)c1C(=O)N1Cc2cn[nH]c2C1 [Compound 95, 5-((1-tert-Butyl-3-phenyl-1H-pyrazol-5-yl)amino)-4-(1H,4H,5H,6H-pyrrolo[3,4-c]pyrazole-5-carbonyl)benzene-1,3-diol]
- EC50 [1, 2]: 182 nM
